Literature values as cited in patent publication US20120058112A1, “ANTIBODIES” (priority 2009, published 2012).

System: gefitinib-resistant (GR) human squamous carcinoma A431 cells
Conditions: cited from earlier work

## COc1cc2ncnc(Nc3ccc(F)c(Cl)c3)c2cc1OCCCN1CCOCC1 [gefitinib]
  phosphorylation levels of Akt: but not those of Akt
  phosphorylation levels of EGFR, ErbB3, and Erk: reduced
